{
  "source": "paper PMC5327911",
  "about": "(Clinical Pharmacology : Advances and Applications, 2017)",
  "origin": "cited, not measured here",
  "conditions": "atenolol; cited from earlier work",
  "data": [
    {"smiles": "CC(C)NCC(O)COc1ccc(CC(N)=O)cc1", "note": "(stereo not shown) [Atenolol, atenolol]", "values": [
      {"measurement": "fraction of the oral dose excreted unchanged in the feces", "value": "Half"}
    ]}
  ]
}
